## Yeast mating assay 1: variants of the scFv Ab-14

The measurements come from Engelhart et al. 2022 (doi:10.1038/s41597-022-01779-4) through the FLAb antibody collection.

All variants were tested on one target, the spike HR2 peptide PDVDLGDISGINAS (SARS-CoV-2).

The variants keep the light chain, the linker and the frameworks of Ab-14 (scFv order VH, the linker GGGGSGGGGSGGGGS, VL).
VH: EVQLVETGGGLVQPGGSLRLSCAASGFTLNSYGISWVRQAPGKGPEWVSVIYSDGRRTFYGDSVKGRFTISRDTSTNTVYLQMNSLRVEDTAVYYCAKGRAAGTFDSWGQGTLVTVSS
VL: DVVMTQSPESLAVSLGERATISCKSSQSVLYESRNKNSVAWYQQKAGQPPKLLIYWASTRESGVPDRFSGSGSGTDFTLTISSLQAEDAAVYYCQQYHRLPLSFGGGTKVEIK

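Phage display of a naive human antibody library on the peptide gave the parent. Variants in AAYL49 differ from the parent at up to three CDR positions; double and triple changes were sampled at random. AlphaSeq pools MATa yeast showing the antibodies with MATalpha yeast showing the peptide. The frequency of each diploid, read from paired DNA barcodes, reflects how well the two displayed proteins bind. Each replicate has its own calibration line, from reference interactions of the BCL2 family. Each pool was mated in three replicate cultures.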

Each variant's VH is given in full.
All variants listed here change G99 of the VH, counted from its first residue.
Each Kd is an estimate from the mating assay, the geometric mean of the replicates in which the pair was seen; lower is stronger.
Where no diploid with the target was found in any replicate, the entry reads "not detected": below detection, most likely a poor binder, though not proof of it.
The list is sorted by this average, lowest first, undetected variants last.
Three control strains display no target. For library AAYL49, 15% of the pairings with them gave a signal, with a median of 11 µM and one signal in twenty below 680 nM, so weak values seen in few replicates may be background. Also given: how often the same scFv was detected with the empty control strains.

VH,Kd (apparent),replicates with signal,control signals
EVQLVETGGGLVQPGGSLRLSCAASGFTLNSYGISWVRQAPGKGPEWVSVIYSDGNRTFYGDSFKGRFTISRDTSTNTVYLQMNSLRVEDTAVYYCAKWRAAGTFDSWGQGTLVTVSS,25 nM,3 of 3,2 of 9
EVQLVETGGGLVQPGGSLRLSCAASMFTLNSYGISWVRQAPGKGPEWVSVIYSDGRRTFYGDSVKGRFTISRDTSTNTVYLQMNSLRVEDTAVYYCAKVRAAGTRDSWGQGTLVTVSS,58 nM,3 of 3,0 of 9
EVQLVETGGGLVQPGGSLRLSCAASGFTLNSIGISWVRQAPGKGPEWVSVIYSDGRRTFYLDSVKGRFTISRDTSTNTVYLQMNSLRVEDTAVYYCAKHRAAGTFDSWGQGTLVTVSS,190 nM,1 of 3,1 of 9
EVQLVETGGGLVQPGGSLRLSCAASGFTLNSYGISWVRQAPGKGPEWVSVIYSDGRRTQYGDPVKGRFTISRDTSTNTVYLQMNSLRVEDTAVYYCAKQRAAGTFDSWGQGTLVTVSS,2.3 µM,1 of 3,1 of 9
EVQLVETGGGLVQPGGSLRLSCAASGDTLNSYGISWVRQAPGKGPEWVSVIYSDGRRTFYGFSVKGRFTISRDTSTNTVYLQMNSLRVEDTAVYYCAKVRAAGTFDSWGQGTLVTVSS,3.7 µM,1 of 3,1 of 9
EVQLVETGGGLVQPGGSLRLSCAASGFTLNSYKISWVRQAPGKGPEWVSVIYCDGRRTFYGDSVKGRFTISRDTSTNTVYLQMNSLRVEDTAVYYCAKLRAAGTFDSWGQGTLVTVSS,4.8 µM,2 of 3,2 of 9
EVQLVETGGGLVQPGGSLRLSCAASGFTLNSYGISWVRQAPGKGPEWVSVIYSDGRREFYGDSVKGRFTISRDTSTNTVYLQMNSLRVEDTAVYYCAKVDAAGTFDSWGQGTLVTVSS,5.3 µM,1 of 3,3 of 9
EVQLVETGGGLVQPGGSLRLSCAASGFTLNSYGHSWVRQAPGKGPEWVSVIYSDGRRTCYGDSVKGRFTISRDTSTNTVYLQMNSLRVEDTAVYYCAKIRAAGTFDSWGQGTLVTVSS,5.4 µM,1 of 3,1 of 9
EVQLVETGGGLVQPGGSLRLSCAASGFTDNSYGISWVRQAPGKGPEWVSVIYSDGRRTFYGDSVKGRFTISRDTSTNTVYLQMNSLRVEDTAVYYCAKASAAGTFDSWGQGTLVTVSS,6.0 µM,1 of 3,3 of 9
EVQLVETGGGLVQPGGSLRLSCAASGFTLNSYGISWVRQAPGKGPEWVSVVYSDYRRTFYGDSVKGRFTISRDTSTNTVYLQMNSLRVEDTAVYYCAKIRAAGTFDSWGQGTLVTVSS,6.6 µM,1 of 3,2 of 9
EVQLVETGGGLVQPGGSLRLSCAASGFTLNSYGSSWVRQAPGKGPEWVSVIGSDGRRTFYGDSVKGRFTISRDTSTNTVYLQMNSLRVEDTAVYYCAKIRAAGTFDSWGQGTLVTVSS,9.1 µM,1 of 3,1 of 9
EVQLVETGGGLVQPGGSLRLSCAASGFTLNSYGISWVRQAPGKGPEWVSVIDSDGRRTHYGDSVKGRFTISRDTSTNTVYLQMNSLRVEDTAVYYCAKMRAAGTFDSWGQGTLVTVSS,11 µM,2 of 3,4 of 9
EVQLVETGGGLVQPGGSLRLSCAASGFTLNSYGISWVRQAPGKGPEWVSVIYKDGRRTFYGMSVKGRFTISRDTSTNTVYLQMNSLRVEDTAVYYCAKERAAGTFDSWGQGTLVTVSS,21 µM,2 of 3,3 of 9
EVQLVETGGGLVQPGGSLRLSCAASGFTTNSYGISWVRQAPGKGPEWVSVIYSDGRRTFYEDSVKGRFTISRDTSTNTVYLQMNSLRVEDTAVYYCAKCRAAGTFDSWGQGTLVTVSS,27 µM,2 of 3,4 of 9
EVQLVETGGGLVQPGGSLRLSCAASGFQLNSYGISWVRQAPGKGPEWVSVIYSDGRRTFYGHSVKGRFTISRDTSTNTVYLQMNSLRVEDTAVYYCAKWRAAGTFDSWGQGTLVTVSS,29 µM,3 of 3,6 of 9
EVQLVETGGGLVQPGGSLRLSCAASGFTSSSYGISWVRQAPGKGPEWVSVIYSDGRRTFYGDSVKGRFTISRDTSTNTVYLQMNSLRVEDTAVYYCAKTRAAGTFDSWGQGTLVTVSS,39 µM,1 of 3,3 of 9
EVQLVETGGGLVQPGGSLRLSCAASGFTLNSYGISWVRQAPGKGPEWVSVIYSDGIRTFYGDSVKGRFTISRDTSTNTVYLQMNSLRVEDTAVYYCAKLRAAGTFDSWGQGTLVTVSS,57 µM,2 of 3,3 of 9
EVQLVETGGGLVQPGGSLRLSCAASGKTVNSYGISWVRQAPGKGPEWVSVIYSDGRRTFYGDSVKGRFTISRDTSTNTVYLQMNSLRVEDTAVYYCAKQRAAGTFDSWGQGTLVTVSS,69 µM,2 of 3,4 of 9
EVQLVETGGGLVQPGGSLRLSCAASGFTNNSHGISWVRQAPGKGPEWVSVIYSDGRRTFYGDSVKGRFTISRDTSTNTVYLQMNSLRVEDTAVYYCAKPRAAGTFDSWGQGTLVTVSS,150 µM,2 of 3,6 of 9
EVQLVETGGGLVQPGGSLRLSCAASGFTLNSYGISWVRQAPGKGPEWVSVIYSDGRRKFYGDSVKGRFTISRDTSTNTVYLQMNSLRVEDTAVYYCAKMHAAGTFDSWGQGTLVTVSS,730 µM,1 of 3,3 of 9
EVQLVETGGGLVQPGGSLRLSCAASGFTLNSYGISWVRQAPGKGPEWVSVIYSDGRRTVYGDSVKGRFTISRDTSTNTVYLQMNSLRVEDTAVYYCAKARAAGTFDSWGQGTLVTVSS,not detected,0 of 3,0 of 9
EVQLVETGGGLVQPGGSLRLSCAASGFTLNSYGISWVRQAPGKGPEWVSVIPSDGRRTFYGDSVKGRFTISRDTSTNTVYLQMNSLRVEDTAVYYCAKLRAAGTFASWGQGTLVTVSS,not detected,0 of 3,2 of 9
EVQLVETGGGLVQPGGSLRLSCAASGFTLNSYGIIWVRQAPGKGPEWVSVIYSDGRRTFYGDSPKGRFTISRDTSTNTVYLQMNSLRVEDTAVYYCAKDRAAGTFDSWGQGTLVTVSS,not detected,0 of 3,0 of 9
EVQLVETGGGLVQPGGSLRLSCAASGFDLNSYGISWVRQAPGKGPEWVSVIWSDGRRTFYGDSVKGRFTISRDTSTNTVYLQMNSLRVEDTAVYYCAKERAAGTFDSWGQGTLVTVSS,not detected,0 of 3,3 of 9
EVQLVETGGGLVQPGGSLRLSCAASGFTRNSYGISWVRQAPGKGPEWVSVIYSDGRRTFYGDSVKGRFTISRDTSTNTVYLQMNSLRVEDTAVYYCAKYRAAGTFDSWGQGTLVTVSS,not detected,0 of 3,1 of 9
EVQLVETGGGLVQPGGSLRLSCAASGFTLNSYGISWVRQAPGKGPEWVSVIYSDGRRTFKSDSVKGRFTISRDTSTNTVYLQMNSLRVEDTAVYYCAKSRAAGTFDSWGQGTLVTVSS,not detected,0 of 3,1 of 9

The opening 4 entries, copied out:

{"VH": "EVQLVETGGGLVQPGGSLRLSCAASGFTLNSYGISWVRQAPGKGPEWVSVIYSDGNRTFYGDSFKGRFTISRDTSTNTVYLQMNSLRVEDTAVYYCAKWRAAGTFDSWGQGTLVTVSS", "Kd (apparent)": "25 nM", "replicates with signal": "3 of 3", "control signals": "2 of 9"}
{"VH": "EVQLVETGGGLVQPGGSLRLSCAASMFTLNSYGISWVRQAPGKGPEWVSVIYSDGRRTFYGDSVKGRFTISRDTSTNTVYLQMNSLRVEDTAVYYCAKVRAAGTRDSWGQGTLVTVSS", "Kd (apparent)": "58 nM", "replicates with signal": "3 of 3", "control signals": "0 of 9"}
{"VH": "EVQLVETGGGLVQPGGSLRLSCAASGFTLNSIGISWVRQAPGKGPEWVSVIYSDGRRTFYLDSVKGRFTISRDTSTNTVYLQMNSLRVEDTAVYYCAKHRAAGTFDSWGQGTLVTVSS", "Kd (apparent)": "190 nM", "replicates with signal": "1 of 3", "control signals": "1 of 9"}
{"VH": "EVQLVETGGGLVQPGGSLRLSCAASGFTLNSYGISWVRQAPGKGPEWVSVIYSDGRRTQYGDPVKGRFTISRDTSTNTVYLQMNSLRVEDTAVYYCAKQRAAGTFDSWGQGTLVTVSS", "Kd (apparent)": "2.3 µM", "replicates with signal": "1 of 3", "control signals": "1 of 9"}

Parent in this assay: reference entry 4.4 nM, copy in this library 13 µM (one replicate of three).